Sequences of proteins named here, by UniProt entry; tags and fusion partners are left off.
UniProt Q06187, whole entry: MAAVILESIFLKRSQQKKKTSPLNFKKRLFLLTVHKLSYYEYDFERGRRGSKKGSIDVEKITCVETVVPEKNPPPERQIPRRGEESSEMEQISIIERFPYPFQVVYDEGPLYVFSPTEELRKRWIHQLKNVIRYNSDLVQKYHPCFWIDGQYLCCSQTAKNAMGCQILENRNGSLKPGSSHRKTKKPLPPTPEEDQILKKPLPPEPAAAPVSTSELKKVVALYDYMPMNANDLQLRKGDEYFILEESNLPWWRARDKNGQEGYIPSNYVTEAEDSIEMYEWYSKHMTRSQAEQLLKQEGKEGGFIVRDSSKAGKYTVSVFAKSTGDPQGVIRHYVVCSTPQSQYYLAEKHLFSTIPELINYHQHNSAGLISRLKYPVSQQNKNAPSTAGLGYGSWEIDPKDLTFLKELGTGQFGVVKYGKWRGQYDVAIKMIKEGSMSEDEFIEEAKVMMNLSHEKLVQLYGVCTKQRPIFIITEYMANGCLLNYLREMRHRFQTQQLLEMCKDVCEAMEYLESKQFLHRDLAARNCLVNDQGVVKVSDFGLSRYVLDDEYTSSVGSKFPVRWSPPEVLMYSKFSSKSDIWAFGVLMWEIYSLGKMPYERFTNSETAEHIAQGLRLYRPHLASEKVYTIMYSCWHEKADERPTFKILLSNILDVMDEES

In US20240217973A1, “IMIDAZOPYRIDINE COMPOUNDS AND USE THEREOF” (MEDSHINE DISCOVERY INC., priority 2021, published 2024):

Biological target: BTK kinase (Homo sapiens (Human), UniProt Q06187)
Test: BTK kinase experiment (ADP-Glo)
Details: read-out: BTK IC50; 2 μM ATP, PolyE4Y1 substrate, 30 minutes pre-incubation
Description: BTK kinase, PolyE4Y1 substrate and Kinase assay buffer III were purchased from Signalchem; ADP-Glo Kinase Assay was purchased from Promega; Nivo multi-label analyzer (PerkinElmer).
1× buffer preparation (which was prepared and used immediately): Kinase assay buffer III was diluted with ddH2O to 1× assay buffer for later use.
The compound to be tested was diluted with 100% DMSO to 10 μM as the first concentration, and followed by a 5-fold dilution to the 8th concentration using a multi-channel pipette, i.e., it was diluted from 10 μM to 0.128 nM.
Each gradient of the compound to be tested was diluted into a working solution with 5% DMSO using 1× buffer, 1 μL/well was added to the corresponding well, and a double-replicate well experiment was set up. 2 μL of BTK enzyme (4 ng) was add to each well and incubating at 25° C. for 30 minutes. After the incubation was completed, 2 μL of a mixture of substrate and ATP (2 μM ATP, 0.2 μg/μL PolyE4Y1) was added to each well and incubating at 25° C. for 120 minutes. At this point, the final concentration gradient of the compound was diluted from 100 nM to 0.00128 nM. […] After reacting at 25° C. for 30 minutes, PerkinElmer Nivo multi-label analyzer was used to read the chemiluminescence, and the integration time was 0.5 seconds. […]

In the case of Nc1nccc2c1n(-c1ccc(Oc3ccccc3)cc1)c(=O)n2C1CCN(C(=O)/C=C/CF)C1 (single isomer, unassigned) [003A], the IC50 is reported as 4.4 nM.
